Test results from US20060122276A1, “Agent for inhibiting membrane virus reproduction, method for the production thereof, pharmaceutical composition and method for inhibiting viral infections” (priority 2003, published 2006).

Experiments:
[1] = prior art RU 2124022; cited from earlier work
[2] = tested on: hepatitis C virus; experiment: Viability of hepatitis C virus-infected SPEV cell cultures; type: cell-based, hepatitis C virus genotype 1b; conditions: 100 μg/ml, 7th day after the infection
Description: In our work we used cytopathogenic strain of hepatitis C virus belonging to geno-type 1b. The strain was isolated from the blood serum of a patient suffering from chronic viral hepatitis C, identified as hepatic C virus. Infective doses of HSV equal to 10 TCD of 50/20 μl were used in the investigation.
Cultures of reinoculated porcine embryo kidney cells (SPEV), highly sensitive to the pathogenic action of HSV, obtained from “Narva” Company (Russia) were employed. These cultures were used in the form of a one day monolayer of cells, grown in 24-cell plastic plates. The cultures of SPEV cells were grown on medium 199 with 10% of fetal calf serum with addition of glutamine and antibiotics (100 U/ml).
Different dilutions of the preparation—sodium salt of fullerene-polyamino-caproic acid—from 100 μg/ml and lower on the medium 199 were used in the experiment. For studying the antiviral activity of the preparation, the preparation was introduced in various concentrations into the SPEV cell cultures at the moment of infection and in 24 hours after the infection with hepatitis C virus on the cell in 24-cell plastic culture plates.
The viability of the SPEV cell cultures infected and non-infected with HSV was studied on the 7th day after the infection.

[3] = for Solubility in Glacial acetic acid: solvent glacial acetic acid; for Solubility in o-Dichlorobenzene: solvent o-dichlorobenzene; for Solubility in Toluene: solvent toluene; for Solubility in Water: solvent water

Substance	Solubility in dimethylsulfoxide, dimethylformamide, and pyridine [1]	Viability of HCV-infected cells [2] [%]	Solubility in Glacial acetic acid [3]	Solubility in o-Dichlorobenzene [3]	Solubility in Toluene [3]	Solubility in Water [3]
N-(monohydro)-fullerene-amino-caproic acid HC60NH(CH2)5COOH	soluble					
sodium salt of fullerene-polyamino-caproic acid		100	Yes	No	No	Yes
Fullerene-polyamino-caproic acid			Yes	No	No	No
